This passage reports IC50 results from patent US10519177B2, “Heterocyclic compounds and uses thereof” (Plexxikon Inc., priority 2013, dated 2019).

The subject of one assay is MV-4-11 cells. The assay is described as follows: Oncology cell growth assay MV-4-11 (CellTiter Glo). Type of assay: cell-based. The following applies: read-out: Cell activity (IC50 μM) MV-4-11 3d-Growth. The text has this: Published bromodomain inhibitors JQ1 and iBET 151 have shown activity in variety of cancer cells such leukemia and lymphoma, multiple myeloma cells, NUT midline carcinoma and glioblastoma cells (Dawson M A et al. 2011; Delmore J E 2011; Chen Z et al. 2013; Filippakopoulos P et al. 2010; Mertz J A et al. 2011; Ott C J et al. 2012). In this study, we test compounds in different cancer cell lines. MV-4-11 and MOLM-13 are AML cell lines harboring a MLL-AF4 and MLL-AF9 translocation, respectively. MM.1S is a multiple myeloma cell line. SK-N-AS, IMR-32 and SK-N-BE(2) are neuroblastoma cell lines. IMR-32 and SK-N-BE(2) cell lines harbor MYCN amplifications.
MV-4-11, MM.1S, IMR-32, SK-N-AS and SK-N-BE(2) were obtained from ATCC (IL, USA) and MOLM-13 were purchased from DSMZ (Braunschweig, German). Cells are cultured as recommended by their sources. For growth inhibition studies 3000 cells are seeded in wells of a 96-well plate in 75 μL of culture media. After several hours, growth media containing compounds of formula (I) are added to the wells. Compound at a maximal concentration of 5 mM was serially diluted 1:3 for a total of 8 point titration with DMSO as a control. A 1 μL aliquot of each dilution point is added to 249 μL growth media and 75 μL is added to each well containing cells, providing 10 μM compound at the maximum concentration point. The final concentration of DMSO in all wells is 0.2%. Cells are incubated for 72 hours, and 25 μL of CellTiter Glo Reagent (Promega GA, USA) is added to each well. Plates are shaken for approximately 10 minutes and chemiluminescent signal is read on Tecan microplate reader. The measured luminescence correlates directly with cell number.
All data is normalized to the mean of eight DMSO high control wells on each plate. A four parameter curve fit of the following formula was then applied: Y=a+(b−a)/(1+(x/c)^d) Where ‘a’ is the minimum, ‘b’ is the maximum, ‘c’ is the pIC50 and ‘d’ is the Hill slope. […] Myc Reporter Assay

In another assay the target is BRD4-BD12 (1-477) (Homo sapiens (Human), UniProt O60885). The assay is described as follows: Alphascreen binding assay BRD4-BD12. The following applies: read-out: Biochemical activity (IC50 μM) BRD4(1 2) H4.

Molecules are shown by their SMILES. Some results are limits rather than exact numbers.

As to `Cc1noc(C)c1-c1cnc2c(-c3ccc(C(=O)O)nc3)cn(C(C)c3ccccn3)c2c1` (stereo not shown), the IC50 with MV-4-11 cells and on BRD4-BD12 (1-477) was under 1 µM each time.
Consider `Cc1noc(C)c1-c1cnc2c(-c3ccc(C(=O)O)c(F)c3)cn(C(C)c3ccccn3)c2c1` (stereo not shown), for which the IC50 in the assay on MV-4-11 cells and on BRD4-BD12 (1-477) was under 1 µM in each case.
Take `Cc1noc(C)c1-c1cnc2c(-c3ccc(C(=O)O)s3)cn(C(C)c3ccccn3)c2c1` (stereo not shown): the IC50 was 1 to 10 µM in the assay with MV-4-11 cells and under 1 µM on BRD4-BD12 (1-477).
For `Cc1noc(C)c1-c1cnc2c(-c3ccc(C(=O)O)c(F)c3F)cn(C(C)c3ccccn3)c2c1` (stereo not shown), the IC50 in the assay with MV-4-11 cells and on BRD4-BD12 (1-477) was under 1 µM throughout.
Consider `COC(=O)Nc1ccc(-c2cn(C(C)c3ccccn3)c3cc(-c4c(C)noc4C)cnc23)cc1` (stereo not shown), for which the IC50 in the assay on MV-4-11 cells and on BRD4-BD12 (1-477) was under 1 µM in each case.
Consider `Cc1noc(C)c1-c1cnc2c(-c3ccc(C(=O)O)cc3F)cn(C(C)c3ccccn3)c2c1` (stereo not shown), for which the IC50 in the assay on MV-4-11 cells and on BRD4-BD12 (1-477) was under 1 µM each time.
For the compound `Cc1noc(C)c1-c1cnc2c(-c3ccc(C(=O)O)c(Cl)c3)cn(C(C)c3ccccn3)c2c1` (stereo not shown), the IC50 in the assay on MV-4-11 cells and at BRD4-BD12 (1-477) was under 1 µM in each case.
For `Cc1noc(C)c1-c1cnc2c(-c3cnc(C4CC4)nc3)cn(C(C)c3ccccn3)c2c1` (stereo not shown), the IC50 with MV-4-11 cells and at BRD4-BD12 (1-477) was under 1 µM in each case.
Consider `CCC(c1ccccn1)n1cc(-c2cccc(CC(=O)O)c2)c2ncc(-c3c(C)noc3C)cc21` (stereo not shown), for which the IC50 with MV-4-11 cells and at BRD4-BD12 (1-477) was under 1 µM each time.
For `COc1ncc(-c2cn(C(C)c3ccccn3)c3cc(-c4c(C)noc4C)cnc23)cn1` (stereo not shown), the IC50 in the assay on MV-4-11 cells and on BRD4-BD12 (1-477) was under 1 µM each time.
For the compound `Cc1noc(C)c1-c1cnc2c(-c3ccc(F)c(C(=O)O)c3)cn(C(C)c3ccccn3)c2c1` (stereo not shown), the IC50 in the assay on MV-4-11 cells was 1 to 10 µM; on BRD4-BD12 (1-477), under 1 µM.
`Cc1noc(C)c1-c1cnc2c(-c3cccc(CC(=O)O)c3)cn(C(C)c3ccccn3)c2c1` (stereo not shown): the values for the IC50 in the assay on MV-4-11 cells and at BRD4-BD12 (1-477) were 1 to 10 µM and under 1 µM, respectively.
For `Cc1noc(C)c1-c1cnc2c(-c3ccc(C(=O)O)cc3Cl)cn(C(C)c3ccccn3)c2c1` (stereo not shown), in that order: under 1 µM and under 1 µM.
With `Cc1cc(-c2cn(C(C)c3ccccn3)c3cc(-c4c(C)noc4C)cnc23)ccc1C(=O)O` (stereo not shown), the IC50 with MV-4-11 cells and at BRD4-BD12 (1-477) was under 1 µM in each case.
